For experiment [1], the system named is scopolamine-induced memory deterioration. The experiment is described as follows: Y maze test. It is filed as in vivo. Particulars: male ICR mice; peptide intraperitoneally 30 minutes before scopolamine; scopolamine 30 minutes before test; compared with scopolamine-administered group. How it is done: Scopolamine was purchased from Sigma-Aldrich (St. Louis, Mo., USA). 4-week-old male ICR mice were purchased from Korean BioLink Co. (Chungbuk, Korea). After an adaptation period of one week, the mice were used in a test and all reagents were administered intraperitoneally. Memory disorder was induced by injection of scopolamine before 30 minutes of the test and the synthesized peptides were injected before 30 minutes of the injection of scopolamine.
The mouse was placed at one end of a Y maze with a length of one branch of 30 cm, a width of 5 cm, and a height of 13 cm and the order of entry into each branch was recorded. Alternation was judged to be successful if the mouse sequentially entered three different branches. Spontaneous alternation was defined as Equation below. Spontaneous alternation (%)=the number of alternations/(total number of entries−2)×100

The test system is the same in experiment [2]. The experiment is described as follows: step-through passive avoidance test. Type of experiment: in vivo. To be noted: male ICR mice; peptide intraperitoneally 30 minutes before scopolamine; scopolamine 30 minutes before test; retention trial after 24 hours; compared with scopolamine-administered group. Here is the method: Louis, Mo., USA). 4-week-old male ICR mice were purchased from Korean BioLink Co. (Chungbuk, Korea). After an adaptation period of one week, the mice were used in a test and all reagents were administered intraperitoneally. […] A passive avoidance test was performed in the same bright room and dark room. A floor of each room was formed in a shape in which 2-mm stainless steel rods were separated from each other at 1-cm intervals. Bright squares (20×20×20 cm) had 100-W bulbs. These squares were connected to a guillotine door. For an acquisition trial, the mouse was placed in the bright room after injection of the reagents and the door was opened after 10 seconds. When the mouse completely entered the dark room, the door was closed and electric shock was applied for 3 seconds. A retention trial was performed after 24 hours of the acquisition trial and the mouse was positioned in the bright room. A latency time of the acquisition and retention trials was measured by a time until the mouse entered the dark room of the box after the door was opened. The retention latency in the passive avoidance test represents a long-term memory function in rodents.

Peptide-I (AG): the “spontaneous alternation (memory improving effect)” value in experiment [1] is “slight improvement”. In experiment [2], the “retention trial latency time (memory improving effect)” value is “slight improvement”.

These data come from US11369659B2, “Method of enhancing a brain or cognitive function” (Brainon Inc., priority 2015, dated 2022).
